# Laboratory results as given in PubChem BioAssay AID1381 (University of Pittsburgh Molecular Library Screening Center, 2008).
# Only a part is listed here, and it is no random draw. Calls of active or inactive are those of the source.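 How the source made its calls: active means plate z-score of nuclear minus cytoplasmic receptor signal below a set negative limit, without overly bright fluorescence or cell loss (cut at about -3.5 in these data, passing the limit was not always enough); inactive means the rest, inconclusive results apart.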
# Experiment: inhibitors of GR-EGFP nuclear translocation, primary screen, dynein cargo transport inhibitor project, imaging, high-content, 3617.4 mouse cells (AID 1381)
# Details: active compounds read low, stimulated with dexamethasone, 1 µM; at 20 µM unless noted
row,SMILES,z-score
1,Cc1ccc(OCC(C)C)c(CN(CCCl)CCCl)c1,inactive: -2.69
2,CCOc1ccc(C)cc1CN(CCCl)CCCl,inactive: -1.48
3,COc1ccc(NC2CCN(CCc3ccccc3)CC2)c(OC)c1,inactive: -0.404
4,O=C(NCC1(N2CCOCC2)CCCCC1)c1cc2ccccc2o1,inactive: -0.302 [at 50 µM]
5,N#CC1(Nc2ccccc2)CCN(Cc2ccccc2)CC1,inactive: 1.25
6,O=C(OC1CN2CCC1CC2)C1c2ccccc2Oc2ccccc21 (centres undefined),inactive: 0.982
7,CCOC(=O)N1CCC(Nc2ccc(OC)cc2)CC1,inactive: -0.19
8,COc1ccc(C(=O)NCC2(N3CCCCC3)CCCCC2)c(OC)c1OC,inactive: 0.415
9,CN1CCC(Nc2cccc(F)c2)CC1,inactive: 1.55
10,CC(C)c1ccc(NC2CCN(C(=O)OC(C)(C)C)CC2)cc1,inactive: -0.341
11,COc1ccc(CN(CCCl)CCCl)cc1Cl,inactive: -0.968
12,CN(C)c1cccc(C(=O)NCC2(N3CCCCC3)CCCCC2)c1,inactive: 0.702
13,O=C(NCC1(N2CCOCC2)CCCCC1)c1cc(=O)[nH]c2ccccc12,inactive: 0.371 [at 50 µM]
14,COc1ccc(NC2CCN(C(=O)OC(C)(C)C)CC2)cc1,inactive: 2.57
15,CN1CCN(CCOC(=O)C(O)(c2ccccc2)c2ccccc2)CC1,inactive: 0.326
16,N#CC1(Nc2ccccc2)CCN(CCc2ccccc2)CC1,inactive: -0.149
17,O=C(NCC1(N2CCCCC2)CCCCC1)c1cccc([N+](=O)[O-])c1,inactive: 0.588
18,c1ccc(CN2CCC(Nc3ccccc3)CC2)cc1,inactive: -0.375 [at 50 µM]
19,N#Cc1ccc(C(=O)NCC2(N3CCCCC3)CCCCC2)cc1,inactive: -0.141
20,N/C(=N\O)c1c(N)no[n+]1[O-],inactive: -0.122
21,O=C(OC1CN2CCC1CC2)C1c2ccccc2C=Cc2ccccc21 (centres undefined),inactive: 0.32
22,COc1ccc(C(=O)NCC2(N3CCOCC3)CCCCC2)cc1OC,inactive: -0.931
23,COc1cc(OC)cc(C(=O)NCC2(N3CCOCC3)CCCCC2)c1,inactive: -1.39
24,CCC(CO)(C(=O)OC1CN2CCC1CC2)c1ccccc1 (centres undefined),inactive: 0.899
25,CCCOc1ccc(C)cc1CN(CCCl)CCCl,inactive: -2.12
26,CCOc1ncccc1C(=O)NCC1(N2CCOCC2)CCCCC1,inactive: 0.559
27,CC(C)(C)OC(=O)N1CCC(Nc2ccccc2)CC1,inactive: -0.0954
28,CCN1CCC(Nc2cccc(F)c2)CC1,inactive: 0.0464
29,CN(C)c1ccc(C(=O)NCC2(N3CCCCC3)CCCCC2)cc1,inactive: -0.91
